Results on one molecule are retold here after article PMC2640231 (Journal of molecular biology, 2008).

In this assay the target is T1, Spc25p (yeast, UniProt P40014 1-221).
T1 sequence (looked up): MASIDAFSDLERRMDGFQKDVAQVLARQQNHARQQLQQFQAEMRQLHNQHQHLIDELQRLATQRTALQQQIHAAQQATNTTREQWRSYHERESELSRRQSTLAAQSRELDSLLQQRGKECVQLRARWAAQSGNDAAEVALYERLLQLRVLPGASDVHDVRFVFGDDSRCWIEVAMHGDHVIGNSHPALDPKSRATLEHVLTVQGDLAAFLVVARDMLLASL
In words: pull-down + SEC.

B1: Spc24p (natural protein, yeast, UniProt Q04477 1-213, looked up)
chain: MSQKDNLLDNPVEFLKEVRESFDIQQDVDAMKRIRHDLDVIKEESEARISKEHSKVSESNKKLNAERINVAKLEGDLEYTNEESNEFGSKDELVKLLKDLDGLERNIVSLRSELDEKMKLYLKDSEIISTPNGSKIKAKVIEPELEEQSAVTPEANENILKLKLYRSLGVILDLENDQVLINRKNDGNIDILPLDNNLSDFYKTKYIWERLGK
As for B1, the binding result is “binds”.
